# According to US5972598A, “Methods for preventing multidrug resistance in cancer cells” (priority 1995, dated 1999):
# Tested on: MDR1
# Format: cell-based, human
structure (smiles),measurement,setting,value
O=C(O)CCCc1ccc(N(CCCl)CCCl)cc1 [chlorambucil],maintenance of MDR1 expression after removal of the drug,"K562 cells treated 3-5 days, then grown in absence of drug",least several weeks
same,"MDR1 induction, mRNA and protein levels","human leukemia and solid-tumor derived cell lines, subpopulation of treated cells","MDR1 induction, both at the mRNA and at the protein levels, was observed"
